## Measured affinities in a library of Ab-95 light chain variants

Antigen: PDVDLGDISGINAS, a 14-residue peptide of the SARS-CoV-2 spike HR2 region.

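The starting antibody came from a phage panning campaign against this peptide. Library AAYL52 holds single substitutions and randomly drawn double and triple substitutions in the CDRs. Affinity was read by AlphaSeq, a pooled yeast mating assay with surface-displayed partners. Mating (16 h, 30 °C) was followed by selection of diploids and sequencing of their barcodes. Scores were corrected for input abundance and mapped to Kd with protein pairs of known affinity run in the same pool. There are three technical replicates.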

Ab-95 is the parent antibody, in scFv form: VH, then a 15-residue (Gly4Ser)3 linker, then VL. The heavy chain is unchanged in all variants.
VH: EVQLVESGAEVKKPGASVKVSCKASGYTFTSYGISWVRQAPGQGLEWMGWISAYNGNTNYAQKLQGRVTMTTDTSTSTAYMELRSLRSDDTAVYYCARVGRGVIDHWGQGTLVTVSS
VL: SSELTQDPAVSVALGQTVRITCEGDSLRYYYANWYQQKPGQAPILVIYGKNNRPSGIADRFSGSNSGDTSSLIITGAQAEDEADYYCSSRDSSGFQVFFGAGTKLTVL

The parent's light chain CDRs are EGDSLRYYYAN, GKNNRPS, SSRDSSGFQVF; each variant's own CDRs replace them letter for letter.
Values are log10 of the apparent Kd in nM; lower means stronger binding.
Where no diploid with the target was found in that replicate, the entry reads "ND": below detection, most likely a poor binder, though not proof of it.
Three control strains display no target. For library AAYL52, 28% of the pairings with them gave a signal, with a median of 3.91 and one signal in twenty below 2.90, so weak values seen in few replicates may be background. For each scFv, signals with the empty controls are counted beside the result, with their mean in brackets.

CDR-L1,CDR-L2,CDR-L3,log10 Kd (nM) by replicate,control signals
EGDSLNYYYAN,GKNNCPS,SSRDSSGSQVF,ND ND ND,1/9 (3.51)
EGDSLRYYYAN,GYNNRPS,HSRDSSGFQKF,3.91 ND 3.28,3/9 (3.61)
EGDSDRYYYAN,GKNNRPS,SSRCSSGFKVF,ND ND 4.03,4/9 (4.79)
EGDSARYYYAQ,GKNNRPS,SSRSSSGFQVF,3.93 3.22 4.58,4/9 (3.49)
EGDSLRYYKAN,GKNNRVS,SSVDSSGFQVF,3.28 3.80 3.78,4/9 (4.04)
EGDSLRYYYAN,GKNNRPS,SPRESSGDQVF,2.50 2.11 1.63,0/9
EGDSMRYYYAN,GKNNRPS,SQRDSSGFFVF,ND 2.45 ND,0/9
EGDSLRYYYAN,GKNNHPL,SSRDSSGAQVF,2.58 2.24 1.98,5/9 (3.34)
EGDFLRYFYAN,GKNNKPS,SSRDSSGFQVF,ND ND ND,2/9 (3.80)
EGRSLRYYWAN,GINNRPS,SSRDSSGFQVF,3.79 3.87 2.86,1/9 (3.78)
EGDSLRYYYAN,GKNMRPD,SSRSSSGFQVF,1.70 1.62 1.38,3/9 (3.94)
EGDSLRYYYAN,GFNNRPS,SSRDSSGFQVF,3.07 3.02 2.97,4/9 (3.74)
EGDSLSYYYAN,GKNNRPT,SSRDSSGFQTF,3.26 2.95 3.10,5/9 (4.57)
EGDSLRYYYAN,GKNNRDS,SSRDSSQFHVF,3.22 3.10 2.81,3/9 (3.79)
EGDSLQYYYAN,GKNNRPS,SSRDESGFQVR,2.62 2.69 2.63,2/9 (3.12)
EGDSLRYYYMN,GKNNRVS,SLRDSSGFQVF,ND ND 4.56,0/9
EGDSLRYYYAC,GKNNRMY,SSRDSSGFQVF,4.82 5.86 ND,3/9 (3.64)
EGDSLRYYYAN,NKNNDPS,SSRDSSGFAVF,3.48 3.72 3.25,5/9 (3.71)
EGDSDRYYYAN,GKNNRPS,SWDDSSGFQVF,3.12 2.55 2.52,2/9 (4.19)
EGDSLRYYYAN,GLNGHPS,SSRDSSGFQVF,3.25 3.67 3.62,5/9 (3.83)
PGDSLPYYYAN,GKNNRPS,SSRDSSGFQVF,2.91 2.64 2.18,2/9 (3.29)
GGDSLRYYYAN,GKNNRPC,SSRDSSSFQVF,ND 4.15 ND,2/9 (3.90)
EGDSLRYAYAN,GKNNRPS,SSRDSSGFQVF,0.89 0.87 0.36,8/9 (4.22)
EGDSLRYYYAN,GKNNRPS,SYRDVSGFYVF,ND 3.47 ND,3/9 (4.05)
EGDSLRKYYAN,GKNNRPS,SDRDSSGDQVF,ND ND ND,2/9 (4.42)
EGDSLRYPVAN,GLNNRPS,SSRDSSGFQVF,2.14 1.99 2.03,2/9 (3.85)
EGDSWTYYYTN,GKNNRPS,SSRDSSGFQVF,3.49 3.94 ND,3/9 (3.95)
EGDSLRYYYAN,GKNFRPS,SSRDSPGAQVF,3.14 3.73 2.06,4/9 (4.01)
MGDSLRYYYAN,GKNNRPD,SSRDSSGFQTF,2.46 2.30 2.06,1/9 (4.31)
EGDLLRYYYAN,GLNMRPS,SSRDSSGFQVF,3.82 2.54 2.40,4/9 (4.83)
EGDSLRYYYAN,GKNNSPY,SSRDLSGFQVF,2.43 5.47 ND,2/9 (3.92)
EWDSLRYYYAY,GKNNRPS,SSRDSSIFQVF,3.95 ND ND,3/9 (4.31)
EGDSLGYYYAN,GKNNRPS,LSRDSSMFQVF,1.98 1.65 1.27,5/9 (4.43)
EGDSLRYYYAN,GKNNRPS,SSCDSSDFQVF,2.17 2.18 1.77,2/9 (4.27)
EADSLRYYYAN,GKNNRSS,SSRDSSGFQTF,ND ND ND,4/9 (3.92)
EGDSLRYYYAN,GKNNRPG,STRDCSGFQVF,4.97 3.45 3.78,2/9 (3.27)
EGDSLRYYYAN,YKHNRPS,SKRDSSGFQVF,3.42 3.56 ND,4/9 (4.06)
SGDNLRYYYAN,GENNRPS,SSRDSSGFQVF,2.88 2.60 2.80,3/9 (3.70)
EGDSLRYCYAS,LKNNRPS,SSRDSSGFQVF,5.73 5.77 ND,3/9 (4.43)
EGDSHRYYYYA,GKNNRPS,SSRDSSGFQVF,3.72 ND ND,2/9 (2.80)
EGDSLRYYYAN,GKNNRPS,SCRDSSGNQVF,2.77 2.68 2.26,3/9 (4.39)
EGDSLRLYYAN,GKNNRPS,CSRDSSGFGVF,ND ND ND,1/9 (5.42)

Picked from the list: the 6 lowest averages where every replicate gave a value.

CDR-L1,CDR-L2,CDR-L3,log10 Kd (nM) by replicate,control signals
EGDSLRYAYAN,GKNNRPS,SSRDSSGFQVF,0.89 0.87 0.36,8/9 (4.22)
EGDSLRYYYAN,GKNMRPD,SSRSSSGFQVF,1.70 1.62 1.38,3/9 (3.94)
EGDSLGYYYAN,GKNNRPS,LSRDSSMFQVF,1.98 1.65 1.27,5/9 (4.43)
EGDSLRYYYAN,GKNNRPS,SSCDSSDFQVF,2.17 2.18 1.77,2/9 (4.27)
EGDSLRYPVAN,GLNNRPS,SSRDSSGFQVF,2.14 1.99 2.03,2/9 (3.85)
EGDSLRYYYAN,GKNNRPS,SPRESSGDQVF,2.50 2.11 1.63,0/9

Source: Engelhart et al. 2022 (doi:10.1038/s41597-022-01779-4), MIT Lincoln Laboratory and A-Alpha Bio; data file from the FLAb repository.